Earlier results in US12357711B2, “PSMA binding dual mode radiotracer and therapeutic” (Technische Universität München, priority 2019, dated 2025).

Chains of the proteins cited; added tags and fusions are not shown. Residues count along the entry.
UniProt P02768, 25-609: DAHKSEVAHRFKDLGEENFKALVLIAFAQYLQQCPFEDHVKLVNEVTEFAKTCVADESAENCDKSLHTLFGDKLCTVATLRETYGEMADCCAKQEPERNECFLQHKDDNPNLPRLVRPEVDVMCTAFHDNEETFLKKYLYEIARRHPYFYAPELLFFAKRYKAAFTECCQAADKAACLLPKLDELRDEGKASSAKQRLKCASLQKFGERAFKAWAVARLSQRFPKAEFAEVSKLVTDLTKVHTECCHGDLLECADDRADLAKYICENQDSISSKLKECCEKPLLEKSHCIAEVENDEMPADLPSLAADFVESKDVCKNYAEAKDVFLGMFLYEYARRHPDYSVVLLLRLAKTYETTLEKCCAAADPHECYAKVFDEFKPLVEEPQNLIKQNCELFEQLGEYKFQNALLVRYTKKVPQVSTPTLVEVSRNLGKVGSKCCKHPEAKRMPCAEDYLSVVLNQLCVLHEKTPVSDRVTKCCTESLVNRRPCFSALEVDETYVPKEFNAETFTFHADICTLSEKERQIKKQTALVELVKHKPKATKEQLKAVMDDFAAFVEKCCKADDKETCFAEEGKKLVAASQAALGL

Target: T1, human serum albumin (Homo sapiens, UniProt P02768)
T1 construct: purchased H13H-2433
Conditions: reference substances for calibration of the HSA-column; cited from earlier work

## NC(=O)N1c2ccccc2C=Cc2ccccc21 [Carbamazepine]
  Lit. HSA % (literature value of human serum albumin binding): 75.00%
